Laboratory results: patent US5525731A, “Camptothecin analogues and methods of preparation thereof” (priority 1994, dated 1996)
Where two headings read alike, the source gives them in different places.

Tested on: B-16 melanoma
Assay type: in vivo, BD2 F1 mice
Conditions: B16 melanoma
Experimental: Average body weight changes were recorded daily.
Tumor: B16 Melanoma Drug A = Camptothecin
Inoculation: 2 × 10^6 cells. S.C.
Schedule: QD × 5. I.P. started day 4

Measured: DEATHS (D/L)

C=C1C(=O)OCc2c1cc1n(c2=O)Cc2c-1nc1ccc(O)cc1c2CC [Compound 33, 7-Ethyl-10-hydroxy-18-nor-anhydrocamptothecin]
0/2: 10 mg/kg, day 7 | 10 mg/kg, day 14 | 30 mg/kg, day 7 | 30 mg/kg, day 14
